The values below come from patent US6602888B2, “Use of α1C specific compounds to treat benign prostatic hyperplasia” (Synaptic Pharmaceutical Corporation, priority 1992, dated 2003).

By UniProt entry, the sequences of proteins in these tests, tags left out. Where a name states a change or a piece, a line headed by the entry shows the natural chain unless it says otherwise.
UniProt P28221: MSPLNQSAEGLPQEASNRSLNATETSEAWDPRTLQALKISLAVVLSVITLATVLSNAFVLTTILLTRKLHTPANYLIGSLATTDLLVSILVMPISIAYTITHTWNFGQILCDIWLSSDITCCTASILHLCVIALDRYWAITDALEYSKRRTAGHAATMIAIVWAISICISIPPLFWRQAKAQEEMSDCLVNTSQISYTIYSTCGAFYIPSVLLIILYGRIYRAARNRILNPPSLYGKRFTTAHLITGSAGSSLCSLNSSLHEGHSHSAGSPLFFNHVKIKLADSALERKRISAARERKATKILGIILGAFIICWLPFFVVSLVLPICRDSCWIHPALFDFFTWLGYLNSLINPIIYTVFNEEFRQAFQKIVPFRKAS
UniProt P28222, whole entry: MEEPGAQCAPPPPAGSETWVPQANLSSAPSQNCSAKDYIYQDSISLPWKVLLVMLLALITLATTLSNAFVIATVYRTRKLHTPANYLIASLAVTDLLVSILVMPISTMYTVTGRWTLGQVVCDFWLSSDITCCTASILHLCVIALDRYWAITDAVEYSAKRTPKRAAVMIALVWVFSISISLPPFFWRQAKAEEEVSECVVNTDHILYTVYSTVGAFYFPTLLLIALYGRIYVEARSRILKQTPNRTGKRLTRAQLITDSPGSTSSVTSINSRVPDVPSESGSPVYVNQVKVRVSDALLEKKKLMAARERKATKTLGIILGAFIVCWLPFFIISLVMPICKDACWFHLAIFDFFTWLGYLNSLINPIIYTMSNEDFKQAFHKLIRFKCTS
UniProt P28566: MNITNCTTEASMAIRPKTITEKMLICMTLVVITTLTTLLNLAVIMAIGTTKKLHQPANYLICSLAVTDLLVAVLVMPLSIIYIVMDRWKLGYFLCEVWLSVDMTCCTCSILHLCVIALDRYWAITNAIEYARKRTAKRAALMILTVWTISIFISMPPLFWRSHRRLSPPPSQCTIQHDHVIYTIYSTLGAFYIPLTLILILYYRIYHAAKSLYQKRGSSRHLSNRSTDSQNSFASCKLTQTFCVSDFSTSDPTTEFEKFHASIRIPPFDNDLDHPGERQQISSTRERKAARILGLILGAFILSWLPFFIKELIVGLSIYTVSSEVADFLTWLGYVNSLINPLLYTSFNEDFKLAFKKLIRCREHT
UniProt P08913, whole entry: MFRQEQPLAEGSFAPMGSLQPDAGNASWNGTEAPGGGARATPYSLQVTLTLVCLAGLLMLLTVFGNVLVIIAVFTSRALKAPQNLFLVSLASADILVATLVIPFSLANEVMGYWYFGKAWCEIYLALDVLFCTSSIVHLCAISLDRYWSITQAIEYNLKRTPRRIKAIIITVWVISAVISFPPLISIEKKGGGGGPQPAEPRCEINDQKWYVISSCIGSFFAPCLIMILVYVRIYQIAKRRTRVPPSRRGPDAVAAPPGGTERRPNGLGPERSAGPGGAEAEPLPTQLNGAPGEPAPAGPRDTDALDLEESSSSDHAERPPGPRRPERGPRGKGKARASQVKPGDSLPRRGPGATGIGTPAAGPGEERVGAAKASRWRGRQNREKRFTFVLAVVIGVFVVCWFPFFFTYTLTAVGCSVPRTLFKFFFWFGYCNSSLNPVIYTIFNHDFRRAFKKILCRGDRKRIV
UniProt P35368, whole entry: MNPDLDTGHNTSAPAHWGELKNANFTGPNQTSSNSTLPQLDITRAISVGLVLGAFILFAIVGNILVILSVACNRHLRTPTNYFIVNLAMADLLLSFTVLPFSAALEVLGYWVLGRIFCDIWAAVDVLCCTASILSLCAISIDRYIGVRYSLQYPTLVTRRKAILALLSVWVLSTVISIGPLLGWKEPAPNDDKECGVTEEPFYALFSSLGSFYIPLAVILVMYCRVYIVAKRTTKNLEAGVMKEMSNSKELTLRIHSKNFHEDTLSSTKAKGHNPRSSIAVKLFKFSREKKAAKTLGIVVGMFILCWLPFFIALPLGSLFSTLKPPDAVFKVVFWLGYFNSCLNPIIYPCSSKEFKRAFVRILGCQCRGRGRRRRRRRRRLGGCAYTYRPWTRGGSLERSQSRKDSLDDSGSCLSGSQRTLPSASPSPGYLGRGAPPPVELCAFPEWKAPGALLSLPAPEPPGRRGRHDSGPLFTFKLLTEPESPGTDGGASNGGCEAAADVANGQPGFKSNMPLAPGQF

The target of data set [1] is T1, human 5HT1Dα receptor (Homo sapiens, UniProt P28221).
T1 construct: host or cells: LM(tk-) clonal cell line Ltk-8-30-84
In words: [3H]serotonin competition binding, 5HT1Dα receptor. To be noted: Table 2, cloned human receptor; read-out: Serotonin 5HT1Da (pK1).

The target in data set [2] is T2, human 5HT1Dβ receptor (Homo sapiens, UniProt P28222).
T2 construct: host or cells: LM(tk-) clonal cell line Ltk-11
Description: [3H]serotonin competition binding, 5HT1Dβ receptor. To be noted: Table 2, cloned human receptor; read-out: Serotonin 5HT1Db (pK1).

Data set [3] deals with T3, human 5HT1E receptor (Homo sapiens, UniProt P28566).
T3 construct: host or cells: LM(tk-) clonal cell line 5HT1E-7
In words: [3H]serotonin competition binding, 5HT1E receptor. To be noted: Table 2, cloned human receptor; read-out: Serotonin 5HT1E (pK1).

Data set [4] addresses T4, human 5HT1F receptor (Homo sapiens, UniProt P30939).
T4 construct: host or cells: LM(tk-) clonal cell line L-5-HT1F
T4 sequence (P30939 1-366): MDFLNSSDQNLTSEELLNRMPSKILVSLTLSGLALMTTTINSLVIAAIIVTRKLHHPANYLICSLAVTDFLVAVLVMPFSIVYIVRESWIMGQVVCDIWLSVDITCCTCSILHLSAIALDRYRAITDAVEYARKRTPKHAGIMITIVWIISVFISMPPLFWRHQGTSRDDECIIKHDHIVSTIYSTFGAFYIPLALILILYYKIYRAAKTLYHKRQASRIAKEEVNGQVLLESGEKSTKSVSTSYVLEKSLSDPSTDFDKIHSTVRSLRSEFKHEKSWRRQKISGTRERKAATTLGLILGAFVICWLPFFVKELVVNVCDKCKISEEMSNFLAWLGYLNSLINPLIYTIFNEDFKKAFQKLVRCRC
In words: [3H]serotonin competition binding, 5HT1F receptor. To be noted: Table 2, cloned human receptor; read-out: Serotonin 5HT1F (pK1).

For data set [5], the system named is Sprague-Dawley normotensive rats. To be noted: rat; for BP fall / orthostatic fall in BP: i.v.; for orthostatic fall in BP: second tilt.
Data set [6] concerns the target human α2A adrenergic receptor (Homo sapiens, UniProt P08913). In words: Competition binding, [3H]rauwolscine, α2A receptor. To be noted: Table 2, cloned human receptor.
Data set [7] addresses human α1B adrenergic receptor (Homo sapiens, UniProt P35368). Description: Radioligand binding, [3H]prazosin, cloned human α1B adrenergic receptor.

Structures can show the parent of a compound that is named as a salt. Where two headings read alike, the source gives them in different places.

As to `COc1cc2nc(N3CCN(C(=O)C4CCCO4)CC3)nc(N)c2cc1OC` (centres unmarked) [Terazosin, 2 [4-(Tetrahydro-2-furoyl)piperazinyl]-4-amino-6,7-dimethoxyquinazoline hydrochloride], the Ki in data set [1] was > 1 µM; in data set [2], > 1 µM; in data set [3] it was > 10 µM; in data set [4], > 10 µM. Also, the BP fall entry is “+” in data set [5] (Dose 1, 10 ug/kg); “++” in data set [5] (Dose 2, 100 ug/kg); “+++” in data set [5] (Dose 3, 1000 ug/kg). The “orthostatic fall in BP” value is given as “+” in data set [5] (Dose 1, 10 ug/kg); “++ or +++” in data set [5] (Dose 2, 100 ug/kg); “++ or +++” in data set [5] (Dose 3, 1000 ug/kg). The “orthostasis (Table 3)” value in data set [5] (doses 10, 100, 1000 ug/kg) is “consistently cause orthostasis at the lowest dose”.
For `O=C(CCCN1CCC(NC(=O)c2ccccc2)CC1)c1ccc(Cl)cc1` [Compound 7], the “Alpha-2 Adrenergic a2a (pK1)” value in data set [6] stood at 6.19.
With `COC(=O)C1=C(C)NC(C)=C(C(=O)OCCCN2CCC(c3ccccc3)(c3ccccc3)CC2)C1c1ccc([N+](=O)[O-])cc1.Cl` (centres unmarked) [Compound 8, 2,6-Dimethyl-4-(4-nitrophenyl)-1,4-dihydropyridine-3,5-dicarboxylic acid [3-(4,4-diphenylpiperidin-1-yl)propyl] ester methyl ester hydrochloride], the “Human Alpha-1 Adrenergic (pK1) a1B” value in data set [7] (Table 1, cloned human receptor) came to 7.07. The “Alpha-1 Adrenergic a1B (pK1)” value in data set [7] (Table 2, cloned human receptor) worked out at 7.07.
